Earlier results in patent US20220168203A1, “METHOD FOR PREPARING HAIR TREATMENTS AGENTS WITH ORGANIC C1-C6 ALKOXY-SILANES” (Henkel AG & Co. KGaA, priority 2019, published 2022).

Details: 25° C.

3,4,5,6-tetrachloro-2-(1,4,5,8-tetrabromo-6-hydroxy-3-oxoxanthen-9-yl)benzoic acid [Acid Red 92]
solubility in water: greater than 10 g/L
